# AlphaSeq binding of Ab-14 light chain variants to a spike HR2 peptide

Target peptide (SARS-CoV-2 spike, HR2 region): PDVDLGDISGINAS

Parent: Ab-14, a human scFv built as VH, a 15-residue (Gly4Ser)3 linker, VL. Only the CDRs of the light chain vary.
VH: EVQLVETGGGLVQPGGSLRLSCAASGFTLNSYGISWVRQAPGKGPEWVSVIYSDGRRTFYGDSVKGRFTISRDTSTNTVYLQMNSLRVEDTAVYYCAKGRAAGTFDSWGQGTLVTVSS
VL: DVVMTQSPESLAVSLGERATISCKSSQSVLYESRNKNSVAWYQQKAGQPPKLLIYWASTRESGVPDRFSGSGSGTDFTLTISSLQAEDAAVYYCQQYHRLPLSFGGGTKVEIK

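The starting antibody came from a phage panning campaign against this peptide. In library AAYL50, one, two or three CDR residues were substituted; doubles and triples were drawn at random. Affinity was read by AlphaSeq, a pooled yeast mating assay with surface-displayed partners. After mating in shaken culture at 30 °C for 16 h, diploids were selected and their barcode pairs sequenced. Scores were corrected for input abundance and mapped to Kd with protein pairs of known affinity run in the same pool. The assay was run in three technical replicates.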

Variants are written as CDR1, CDR2 and CDR3 of the light chain (limits as in the source). Parent: KSSQSVLYESRNKNSVA, WASTRES, QQYHRLPLS. Every variant below is changed at L100 of the VL (sequential numbering). Values are apparent Kd, the geometric mean of the replicates that gave a signal; lower means stronger binding. An entry "no signal" has no value in the source: the pair was not observed among the diploids in any replicate. This suggests poor binding but is not conclusive. For reference, the parent read 4.4 nM as the reference entry and 48 nM as a member of this library.

For KSSQSVLYESRNKNSVA / WAATREW / QQYHREPLS, the assay gave no signal (0 of 3 replicates).
For KSSQDVLYESRNKQSVA / WASTRES / QQYHREPLS, the assay gave 4.3 µM (3 of 3 replicates).
For KSSQSVLYEDRNKNSVA / WASTRQS / QQYHRMPLS, the assay gave 12 nM (3 of 3 replicates).
For KSSQSVLYENRNKNSVA / WASTRES / QQYHRSALS, the assay gave 56 µM (1 of 3 replicates).
For KSSQQVLYESRNKNSVA / WAETRES / QQYHRGPLS, the assay gave 72 µM (1 of 3 replicates).
For KSSQSVLYESRNKNSTA / WASTRES / QQYHRIPLS, the assay gave 3.2 µM (1 of 3 replicates).
For KSSQSVLYESTNKNSVA / WASTREL / QQYHRAPLS, the assay gave 3.6 nM (3 of 3 replicates).
For KSSQSVLIESRNKNSVA / KASTRES / QQYHRRPLS, the assay gave 140 µM (1 of 3 replicates).
For KSSQSVLYESRNKNSVA / WASTRTS / QQYYRDPLS, the assay gave no signal (0 of 3 replicates).
For KSSQSVLYESFNKNSVA / WASTRES / QQYVRPPLS, the assay gave 3.6 nM (3 of 3 replicates).
For KSSQSVLYESRNKNSVA / WASTRES / NQYHRMPLS, the assay gave 190 nM (3 of 3 replicates).
For KSSQSVLYESRNKNSVA / WASTRES / QQYHRGPLS, the assay gave 19 nM (3 of 3 replicates).
For KSSQSVLYHSRNKNSVK / WASTRES / QQYHRFPLS, the assay gave 6.3 µM (1 of 3 replicates).
For KSSQSVLYESRNRNSVA / WASTRES / QQYHRRPLS, the assay gave 2.4 µM (2 of 3 replicates).
For KSSQSVLYESRNKNSVA / WESTRES / QQYWRAPLS, the assay gave 760 nM (3 of 3 replicates).
For MSSQMVLYESRNKNSVA / WASTRES / QQYHRWPLS, the assay gave no signal (0 of 3 replicates).
For KISQSVLYESRYKNSVA / WASTRES / QQYHRFPLS, the assay gave 4.1 nM (3 of 3 replicates).
For KSSQSVLYESRNKNSVA / WKSTRES / QQYHRWPLS, the assay gave no signal (0 of 3 replicates).
For KSSQSVLYESRNKNSAA / WASTRES / QQYCRPPLS, the assay gave 8.0 µM (2 of 3 replicates).
For KSSQSVLYESRNKNSHA / WASTRES / QQYHREPLS, the assay gave no signal (0 of 3 replicates).
For KSSQSVLYESRNFNSVA / WASTRES / QYYHRCPLS, the assay gave 180 nM (3 of 3 replicates).
For KSSQSVLYESRNKNSVA / WASTRES / QQYHRVPLS, the assay gave 12 nM (3 of 3 replicates).
For KSSQSVLYESRNKNSVA / WASTRES / QQRHRWPLW, the assay gave 36 nM (3 of 3 replicates).
For KSSQPVLYESRNKNSVA / WASTREI / QQYHRMPLS, the assay gave 8.0 nM (3 of 3 replicates).
For KSSQSVLYESRNKNSNA / WASWRES / QQYHRPPLS, the assay gave no signal (0 of 3 replicates).
For KSSQSVLYPSRNKNSVA / WASTRES / QQYHRTPHS, the assay gave no signal (0 of 3 replicates).
For KSSQSVLYESRNSNSVA / WASTRES / QQYHRNALS, the assay gave 69 nM (3 of 3 replicates).
For KSCKSVLYESRNKNSVA / WASTRES / QQYHRSPLS, the assay gave 1.6 µM (3 of 3 replicates).
For KSSQSVLYESRGKNSVA / WASTQES / QQYHRIPLS, the assay gave 130 µM (2 of 3 replicates).
For WSSQSVLYESRNKNSEA / WASTRES / QQYHRTPLS, the assay gave no signal (0 of 3 replicates).
For KSSQSVLYESRNKNSVA / WASTRES / QQYMRDPLS, the assay gave no signal (0 of 3 replicates).
For KSSQSVLYESRNKNWVA / WAVTRES / QQYHRTPLS, the assay gave no signal (0 of 3 replicates).
For KSSCSVLYESRNKNSVA / WASTRES / QHYHRGPLS, the assay gave 3.7 µM (3 of 3 replicates).
For KSSQSVLEESRNKNSVA / WASTRES / QQYHHMPLS, the assay gave 6.6 nM (3 of 3 replicates).
For KSSQSVRYESRNKNSVA / WASTRES / QQYSRPPLS, the assay gave 15 nM (3 of 3 replicates).
For PSSQSVLYESRNKNSVA / WASFRES / QQYHRRPLS, the assay gave 5.3 µM (1 of 3 replicates).
For KSSQSVQYESRNKNSVA / WASTRES / QHYHRWPLS, the assay gave no signal (0 of 3 replicates).
For KSGHSVLYESRNKNSVA / WASTRES / QQYHRKPLS, the assay gave 4.2 µM (1 of 3 replicates).

For reference, 2 entries of the list once more:

| CDR-L1 | CDR-L2 | CDR-L3 | Kd | detected |
|---|---|---|---|---|
| KSSQSVLYENRNKNSVA | WASTRES | QQYHRSALS | 56 µM | 1 of 3 |
| KSSQSVLYPSRNKNSVA | WASTRES | QQYHRTPHS | no signal | 0 of 3 |

Three control strains display no target. For library AAYL50, 18% of the pairings with them gave a signal, with a median of 15 µM and one signal in twenty below 970 nM, so weak values seen in few replicates may be background.

The measurements come from Engelhart et al. 2022 (doi:10.1038/s41597-022-01779-4) through the FLAb antibody collection.